# Target: T1, human URAT1 (Homo sapiens, UniProt Q96S37)
# Protein sequences, listed by entry. Tags and fused reporters are not part of them. Lines headed by an entry give the natural chain unless they say otherwise; changes in a name come on top.
# UniProt Q96S37: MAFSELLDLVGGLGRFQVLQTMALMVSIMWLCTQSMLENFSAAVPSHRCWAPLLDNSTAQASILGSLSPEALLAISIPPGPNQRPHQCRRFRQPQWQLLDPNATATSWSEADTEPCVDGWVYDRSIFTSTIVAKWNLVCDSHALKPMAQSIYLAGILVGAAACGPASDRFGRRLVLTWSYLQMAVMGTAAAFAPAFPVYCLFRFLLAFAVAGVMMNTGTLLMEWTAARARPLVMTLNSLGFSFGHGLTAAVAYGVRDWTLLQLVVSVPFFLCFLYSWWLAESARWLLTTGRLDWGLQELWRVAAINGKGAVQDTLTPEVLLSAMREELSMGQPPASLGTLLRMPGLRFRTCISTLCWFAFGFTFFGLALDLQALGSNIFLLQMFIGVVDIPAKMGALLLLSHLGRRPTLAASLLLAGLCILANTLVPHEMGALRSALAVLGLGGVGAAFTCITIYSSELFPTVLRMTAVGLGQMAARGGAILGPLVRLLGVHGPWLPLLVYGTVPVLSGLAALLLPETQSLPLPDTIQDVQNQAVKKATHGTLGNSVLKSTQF
# T1 construct: host or cells: HEK293
# Experiment: Inhibition of URAT1-mediated uptake of 14C-labeled uric acid in stably transfected HEK293 cells
# Type: cell-based
# Conditions: 14C-uric acid 50 μM, n = 3, read-out: IC50 of URAT-1 inhibitory effect
row,SMILES,IC50
1,"O=C(O)CSc1nnc(Br)n1-c1ccc(C2CC2)c2ccccc12 (racemic) [(±)-Lesinurad, Lesinurad, reference compound]",11.7 µM
2,"O=C(O)CSc1nnc(Br)n1-c1ccc(C2CC2)c2ccccc12 (single isomer, unassigned) [(+)-Lesinurad]",3.84 µM
3,"O=C(O)CSc1nnc(Br)n1-c1ccc(C2CC2)c2ccccc12 (single isomer, unassigned) [(−)-Lesinurad]",17.2 µM
